{"sequences": {"note": "The chains behind the UniProt entries cited, without tags or fusion partners.", "UniProt P35414, whole entry": "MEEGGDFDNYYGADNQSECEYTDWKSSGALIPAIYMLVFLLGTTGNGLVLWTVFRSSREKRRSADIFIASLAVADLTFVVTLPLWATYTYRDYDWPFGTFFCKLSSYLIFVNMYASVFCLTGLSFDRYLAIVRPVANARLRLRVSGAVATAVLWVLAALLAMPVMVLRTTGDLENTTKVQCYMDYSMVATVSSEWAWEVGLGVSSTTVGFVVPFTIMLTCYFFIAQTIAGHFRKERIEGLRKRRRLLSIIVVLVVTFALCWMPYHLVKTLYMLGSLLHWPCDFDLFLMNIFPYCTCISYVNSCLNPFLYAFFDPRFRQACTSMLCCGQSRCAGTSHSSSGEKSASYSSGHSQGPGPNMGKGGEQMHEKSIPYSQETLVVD"}, "source": "patent US10689367B2", "about": "“Triazole pyridyl compounds as agonists of the APJ receptor” (AMGEN INC., priority 2016, dated 2020)", "data": [{"molecular_target": "APJ receptor (Homo sapiens (Human), UniProt P35414)", "experiment": "[35S]GTPγS binding assay on membranes from CHO cells stably expressing human APJ receptor", "assay_type": "biochemical", "conditions": "read-out: Activity hAPJ SPA EC50 IP, membranes of CHO cells stably expressing human APJ receptor", "protocol": "The human APJ receptor was cloned by polymerase chain reaction and the gene encoding the receptor was subcloned in pFLAG-CMV™-3 expression vector (Sigma, Saint Louis, Mo. USA) in-house at Amgen. A GTPγS binding assay was performed on membranes prepared from CHO cells stably expressing human APJ receptor. The optimum experimental conditions for the concentrations of GDP, MgCl2, and NaCl in the assay buffer were initially determined. […] Incubation was at RT for 90 min and the microplate was read using a ViewLux™ ultra HTS Microplate Imager (PerkinElmer, Inc.). All the results presented are means of several independent experiments and analyzed by non-linear regression methods using the commercially available program Prism (GraphPad, San Diego, Calif.) providing the EC50 values detailed in Table 27.", "units": {"EC50": "nM"}, "values": [{"smiles": "COc1cccc(-c2nnc(NS(=O)(=O)[C@@H](C)[C@H](OC)c3ncc(Cl)cn3)n2C(C)C2CN(C)CCO2)n1", "note": "(single isomer, unassigned)", "EC50": 11}, {"smiles": "COc1cccc(-c2nnc(NS(=O)(=O)[C@@H](C)[C@H](OC)c3ncc(Cl)cn3)n2C(C)C2COCCO2)n1", "note": "(single isomer, unassigned) [142.0]", "EC50": 11}, {"smiles": "COc1cccc(-c2nnc(NS(=O)(=O)[C@@H](C)[C@H](OC)c3ncc(Cl)cn3)n2C(C)C2COCCO2)n1", "note": "(single isomer, unassigned) [143.0]", "EC50": 9.8}, {"smiles": "COc1cccc(-c2nnc(NS(=O)(=O)[C@@H](C)[C@H](C)c3ncc(Cl)cn3)n2C(C)C2COCCO2)n1", "note": "(single isomer, unassigned) [144.0]", "EC50": 14}, {"smiles": "COc1cccc(-c2nnc(NS(=O)(=O)[C@@H](C)[C@H](C)c3ncc(Cl)cn3)n2C(C)C2COCCO2)n1", "note": "(single isomer, unassigned) [145.0]", "EC50": 19}, {"smiles": "COc1cccc(-c2nnc(NS(=O)(=O)[C@@H](C)[C@@H](OC(C)C)c3ncc(Cl)cn3)n2C(C)C2COCCO2)n1", "note": "(single isomer, unassigned) [146.0]", "EC50": 1.5}, {"smiles": "COc1cccc(-c2nnc(NS(=O)(=O)[C@@H](C)[C@@H](OC(C)C)c3ncc(Cl)cn3)n2C(C)C2COCCO2)n1", "note": "(single isomer, unassigned) [147.0]", "EC50": 4.9}]}]}
